According to patent publication US8263526B2, “Compositions of keratin hydrolysate and microbes for pest control applications” (priority 2006, dated 2012):

Tested on: blastospores of Paecilomyces fumosoroseus ARSEF 3581
Experiment: % germination assay (6-hr) of blastospores in surfactant solutions
Format: cell-based
Conditions: 28° C.
Procedure: Blastospore suspensions (˜1×10^8 blastospores/ml) were prepared by adding 1.3 g of the dried blastospores of P. fumosoroseus formulate to 100 ml sterile deionized water. The spore suspension was stirred for 30 minutes, and then allowed to stand 1 minute to allow the diatomaceous earth to settle. Without disturbing the diatomaceous earth, 30 ml of the spore suspension was removed and transferred to a sterile bottle. The blastospore concentration of the suspension was measured using a hemacytometer.
A one ml aliquot of the previously described blastospore suspension was added to 49 ml of the foaming agents in a 250 ml baffled Erlenmeyer flask. The blastospore suspensions were incubated in a rotary shaker incubator (Innova 4000, New Brunswick) at 300 RPM and 28° C. for 6 hours. Blastospore germination was measured by microscopic observation of the germ tube formation. Four slides were prepared from the incubated blastospore suspension using separate pipets. Germ tube formation was measured for 100 blastospores on each slide. A total of 400 blastospores were counted from each flask.

Measured: % viability 6-hr germination

sodium linear alkyl benzene sulfonate [Na linear alkyl benzene sulfonate]
0.0%: surfactant 0.5% (w/w) | surfactant 1.0% (w/w) | surfactant 2.0% (w/w)
